Measurements from ChEMBL document CHEMBL1131204, “Flavonoid derivatives as adenosine receptor antagonists: a comparison of the hypothetical receptor binding site based on a comparative molecular field analysis model” (J Med Chem, 1998).

Amino acid sequences for entries named in this document (tags omitted).
UniProt P25099, whole entry: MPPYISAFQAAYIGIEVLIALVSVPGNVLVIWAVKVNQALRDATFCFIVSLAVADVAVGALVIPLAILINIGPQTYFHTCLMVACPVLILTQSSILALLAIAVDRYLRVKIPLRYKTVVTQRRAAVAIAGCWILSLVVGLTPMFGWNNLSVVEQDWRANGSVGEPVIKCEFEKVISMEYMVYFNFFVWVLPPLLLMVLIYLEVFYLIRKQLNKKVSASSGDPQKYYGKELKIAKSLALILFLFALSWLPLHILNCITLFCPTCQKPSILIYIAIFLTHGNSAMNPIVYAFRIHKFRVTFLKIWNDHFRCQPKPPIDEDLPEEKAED

Biological target: Adenosine receptor A1 (Rattus norvegicus) (UniProt P25099)
Experiment: Ability to displace [3H]N6-phenylisopropyladenosine binding from adenosine A1 receptor.

pKi(uM): -0.34
SMILES: O=c1cc(-c2ccccc2)oc2cccc(O)c12
